Source: ChEMBL document CHEMBL1126778, “Adenosine A1 antagonists. 3. Structure-activity relationships on amelioration against scopolamine- or N6-((R)-phenylisopropyl)adenosine-induced cognitive disturbance” (J Med Chem, 1993)

The chains behind the UniProt entries cited, without tags or fusion partners.
UniProt P47745, whole entry: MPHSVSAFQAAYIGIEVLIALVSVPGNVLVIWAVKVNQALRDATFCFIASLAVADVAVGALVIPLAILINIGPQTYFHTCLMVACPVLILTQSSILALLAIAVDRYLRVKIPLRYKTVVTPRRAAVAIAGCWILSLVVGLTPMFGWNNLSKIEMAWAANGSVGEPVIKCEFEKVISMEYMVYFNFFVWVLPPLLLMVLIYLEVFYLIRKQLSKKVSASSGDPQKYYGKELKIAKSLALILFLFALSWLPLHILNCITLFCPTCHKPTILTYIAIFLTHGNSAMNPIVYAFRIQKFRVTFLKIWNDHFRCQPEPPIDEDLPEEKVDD

Molecular target: Adenosine receptor A1 (Cavia porcellus, UniProt P47745)
Experiment: Binding affinity against Adenosine A1 receptor from guinea pig forebrain membranes by N6-[3H]- cyclohexyladenosine displacement.

CCCn1c(=O)c2nc(C34CC5CC(CC3C5)C4)[nH]c2n(CCc2ccc(N)cc2)c1=O
Ki: 2.4 nM
